scFv variants of Ab-95 (light chain) against a SARS-CoV-2 spike peptide

Data: MIT Lincoln Laboratory AlphaSeq set, Engelhart et al. 2022, doi:10.1038/s41597-022-01779-4, as distributed in FLAb.

The target is the same throughout: PDVDLGDISGINAS, from the HR2 region of SARS-CoV-2 spike.

Parent scFv Ab-95: VH joined to VL by a (GGGGS)3 linker. Changes lie in the light chain CDRs alone.
VH: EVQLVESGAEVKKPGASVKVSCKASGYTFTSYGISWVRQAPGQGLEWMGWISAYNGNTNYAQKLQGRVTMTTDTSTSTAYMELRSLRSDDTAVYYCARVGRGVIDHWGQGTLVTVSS
VL: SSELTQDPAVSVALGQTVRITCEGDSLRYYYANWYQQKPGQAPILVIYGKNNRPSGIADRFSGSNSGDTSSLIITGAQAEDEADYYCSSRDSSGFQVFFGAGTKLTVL

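The library (AAYL52) carries one to three amino acid substitutions per variant, with no insertions or deletions. Affinity was read by AlphaSeq, a pooled yeast mating assay with surface-displayed partners. After mating in shaken culture at 30 °C for 16 h, diploids were selected and their barcode pairs sequenced. A regression on co-assayed BCL2-family reference pairs converts the normalised counts of each replicate to an apparent Kd. Mating was done three times.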

Variants are written as CDR1, CDR2 and CDR3 of the light chain (limits as in the source). Parent: EGDSLRYYYAN, GKNNRPS, SSRDSSGFQVF.
The read-out is the apparent dissociation constant on a log10 scale (nM): the lower, the stronger.
Averages over replicates are reported, and they cover detected replicates only.
An entry "nd" has no value in the source: the pair was not observed among the diploids in any replicate. This suggests poor binding but is not conclusive.
Parent in this assay: reference entry 2.31, copy in this library 2.25.

mean log10 Kd (nM)	detected	CDR-L1	CDR-L2	CDR-L3
4.55	1 of 3	EGDSLRYYYAN	GKNNRPS	SSSWSSGFQAF
1.26	3 of 3	IGDSLRYSYAN	GKNNRPS	SSRDSSGFDVF
nd	0 of 3	YGDSLRYYYCN	GKNNRPS	SSRDSSNFQVF
nd	0 of 3	EGDTLRYYYAN	GKNNRPS	SSRRESGFQVF
3.35	2 of 3	EMDWLRYYYAN	GKNNRPS	SSDDSSGFQVF
4.29	2 of 3	EGDSLRYYYAN	GKNDWGS	SSRDSSGFQVF
2.82	2 of 3	FGDMLRYYYAN	GKNNRPS	VSRDSSGFQVF
4.53	1 of 3	ECWSLRYYYAN	GKNNRPS	CSRDSSGFQVF
4.11	1 of 3	EGDSLRYYYAN	FKNNRPS	SSRVSSGFKVF
nd	0 of 3	EGDSLRYYYAN	GCNNIPS	SSRDSSGFQWF
nd	0 of 3	EGDSLRYYYAN	GKNNRPS	SSFDSMGFQVV
4.12	3 of 3	EGDSLWYYYAN	GKNNRPL	SSRVSSGFQVF
2.71	3 of 3	MGDSLRYYYAN	GKNNRPS	SSRDASGFQVR
2.83	3 of 3	EGDSLRYYYAN	GFNNRPS	GSRDHSGFQVF
2.65	3 of 3	EHDSLRYYYAN	GKNNRPS	KSRDSSGFQQF
4.06	1 of 3	EGDSGRYYYQN	GKNNRPS	SSRDSSGFQEF
3.99	1 of 3	EGDSCRYYYAN	FKNHRPS	SSRDSSGFQVF
2.62	1 of 3	EGDSLRYYYAN	GKNNRPS	HHRDSSGFQMF
nd	0 of 3	CGDSLEYYYAE	GKNNRPS	SSRDSSGFQVF
3.52	3 of 3	EGDSLRYYYAN	GKNFRPS	SSDDSSGFQFF
3.87	2 of 3	EGCSLIYYYAN	GKNNRPS	ASRDSSGFQVF
nd	0 of 3	EGDSCRYYYAN	GKNNRPS	SSPDSSGFQVE
2.01	3 of 3	EGDSLRYYKAN	GKNGRPS	SARDSSGFQVF
nd	0 of 3	WGTSLRYYYEN	GKNNRPS	SSRDSSGFQVF
2.84	3 of 3	EGDSLFYYYRN	GKNNRPS	SSRDSSGAQVF
3.23	3 of 3	EIDSRRYYYAN	GKNNRPS	SSRDSSGFQVV
nd	0 of 3	EGDSLRYYYAV	GKSNRPS	SSRDSSGFQVF
3.20	3 of 3	EGGSLEYYYAN	GKNNRPS	SLRDSSGFQVF
nd	0 of 3	EGDSLRYYYAN	GQNNRPA	SSPDSSGFQVF
4.72	1 of 3	EGDSLRYYYLN	GKNKRYS	SSRDSSGFQVF
3.62	3 of 3	EGTSLRYYYAN	GKMYRPS	SSRDSSGFQVF
4.09	2 of 3	IGDKLRYYYAN	KKNNRPS	SSRDSSGFQVF
nd	0 of 3	EGDSLRYYYAN	MKNNRPS	SSRDSSGFQVM
3.53	2 of 3	EGDSLRYYYAN	GKNNNPS	SSRDSSGFQVH
3.25	1 of 3	EGDSLRYYYLN	GKNTRPN	SSRDSSGFQVF
3.29	3 of 3	EHDSLRYYYAN	GKNNRPS	SRRDHSGFQVF
5.00	1 of 3	EGWCLRYYYAN	PKNNRPS	SSRDSSGFQVF
2.88	3 of 3	EGDSLRYYYAN	GKNNRPS	SSADSSGSQVG
2.80	3 of 3	EGDSLRYYYAN	GKNNRPS	SWLDSSGFTVF
2.63	3 of 3	EGDSLRYYYAN	DKNNRKS	MSRDSSGFQVF
nd	0 of 3	EGDSLRYYYAN	GKNNKPS	SSMDSSGFQGF
2.55	3 of 3	EGDSLRYRYAN	GKNNRPS	SSLDSSGFNVF
3.51	3 of 3	EGDSLRYYYAN	GKNRRPS	SSRDHSGWQVF
0.90	3 of 3	EGDNLRYQYAN	GKNNRPS	SSRDSSGFQVI
4.31	1 of 3	EGDSLRYYYAK	GKNNRPS	SSRCSSGSQVF
1.78	3 of 3	EGDMLDYYYAN	GKNNRPS	SSRDSSGFQVH
2.58	3 of 3	EGDSLRYYYAN	GKNNRPS	SSRDSSGHQVI
nd	0 of 3	EGDSLRYYYAW	GKYNRPS	SSRDSSGAQVF
4.08	3 of 3	EGDSLRYYYAN	DKNNRPS	SSRASSGFQDF
3.55	2 of 3	ETDSLRYYYAN	GDNNRGS	SSRDSSGFQVF
3.95	1 of 3	EGDSLRRYYAN	GKNNIPS	SSRDSSAFQVF

Excerpt, the final 5 entries:

CDR-L1	CDR-L2	CDR-L3	mean log10 Kd (nM)	detected
EGDSLRYYYAN	GKNNRPS	SSRDSSGHQVI	2.58	3 of 3
EGDSLRYYYAW	GKYNRPS	SSRDSSGAQVF	nd	0 of 3
EGDSLRYYYAN	DKNNRPS	SSRASSGFQDF	4.08	3 of 3
ETDSLRYYYAN	GDNNRGS	SSRDSSGFQVF	3.55	2 of 3
EGDSLRRYYAN	GKNNIPS	SSRDSSAFQVF	3.95	1 of 3

Empty control strains, which show no peptide, gave a signal in 28% of pairings with library AAYL52; the median was 3.91 and 95% of these signals were weaker than 2.90. No background was subtracted.